# Reported melting point values for industrial, environmental and drug-like chemicals

Melting points are in °C.
Cells with "n/a" have no entry in this list.
The databases behind each value are named after "via".

structure (SMILES)	name	melting point (°C)	via
CNS(=O)(=O)c1ccc(C(C)=O)cc1	n/a	110	OCHEM
NCCCc1nc2ccccc2[nH]1	1H-Benzimidazole-2-propanamine	211	OCHEM
O=C(O)CCc1n[nH]c(=O)[nH]c1=O	n/a	204	OCHEM
N=c1nc(O)c(O[C@@H]2O[C@H](CO)[C@@H](O)[C@H](O)[C@H]2O)c(N)[nH]1	Vicine	243.5	PubChem
Nc1nc(-c2ccncc2)cs1	4-Pyridin-4-yl-thiazol-2-ylamine	173	OCHEM
O=C(O)COc1ccc(C(=O)c2ccccc2)cc1	Acetic acid, (4-benzoylphenoxy)-	154	OCHEM
O=C(CCl)Nc1ccccc1-c1ccccc1	N-Biphenyl-2-yl-2-chloro-acetamide	104	OCHEM
CC(=O)C(N=Nc1ccccc1)C(C)=O	3-(Phenylazo)-2,4-pentanedione	86.5	OCHEM
OC(Cc1nc2ccccc2o1)c1cccc(C(F)(F)F)c1 (configuration not stated)	n/a	88	OCHEM
CCCCCCC(O)CCCCCCCCCCC(=O)NCCCCCCNC(=O)CCCCCCCCCCC(O)CCCCCC (configuration not stated)	Octadecanamide, N,N'-1,6-hexanediylbis[12-hydroxy-	135.5	eChemPortal
COc1ccc(S(=O)(=O)Cl)cc1C(=O)O	5-Chlorosulphonyl-2-anisic acid	143	OCHEM
CCOc1cc(Br)c([N+](=O)[O-])cc1OCC	1-bromo-4,5-diethoxy-2-nitrobenzene	63	OCHEM
COc1ccc2[nH]c(C(=O)O)cc2c1OC	4,5-Dimethoxy-1H-indole-2-carboxylic acid	222	OCHEM
O=Cc1cnn(-c2ccccc2)n1	2-Phenyl-2H-1,2,3-triazole-4-carbaldehyde	67	OCHEM
Cc1ccc2cc(CCl)c(Cl)nc2c1	2-chloro-3-(chloromethyl)-7-methylquinoline	133	OCHEM
Cc1[nH]c(=O)[nH]c1C	4,5-Dimethyl-1,3-dihydro-2H-imidazol-2-one	240	OCHEM
O=C1Nc2cccnc2N(C(=O)CCl)c2ccccc21	n/a	192	eChemPortal
O=C1C(=O)N(CO)c2ccccc21	Indole-2,3-dione, 1-(hydroxymethyl)-	158	OCHEM
CCN(CC)S(=O)(=O)c1ccc(Cl)c([N+](=O)[O-])c1	4-chloro-N,N-diethyl-3-nitrobenzenesulfonamide	89.5	OCHEM
NC(=O)c1c(NC(=O)CCl)sc2c1CCCC2	n/a	237	OCHEM
CC(C)COCC(CN(Cc1ccccc1)c1ccccc1)N1CCCC1.Cl.O (configuration not stated)	Bepridil hydrochloride monohydrate	91	OCHEM
CCC(C(c1ccc(Cl)cc1)c1ccc(Cl)cc1)[N+](=O)[O-] (configuration not stated)	Bulan	65	OCHEM
O.O=C(O)c1cc(=O)[nH]c(=O)[nH]1	n/a	334	OCHEM
O=C(O)Cn1nnc(-c2ccccc2)n1	(5-Phenyl-2H-tetrazol-2-yl)acetic acid	181	OCHEM
Brc1ccc(Oc2c(Br)c(Br)c(Br)c(Br)c2Br)cc1	BDE-166	184	OCHEM
O=C(O)COc1ccc2ccccc2c1Br	[(1-bromo-2-naphthyl)oxy]acetic acid	159	OCHEM
O=C(O)CCC(=O)c1ccc(I)cc1	4-(4-Iodo-phenyl)-4-oxo-butyric acid	176	OCHEM
Cn1c(=O)c2c(=O)cc(N)[nH]c2n(C)c1=O	n/a	317	OCHEM
CC(=O)C=CC12OC1(C)CCCC2(C)C (configuration not stated)	5,6-beta-Ionone epoxide	49	PubChem
CCCCCCCCCC[N+](C)(C)[O-]	N,N-Dimethyldecylamine oxide	130	eChemPortal
COc1cc(C=O)c([N+](=O)[O-])cc1O	4-hydroxy-5-methoxy-2-nitrobenzaldehyde	208	OCHEM
S=c1[nH]ncn1-c1cccc(Cl)c1	4-(3-chlorophenyl)-4H-1,2,4-triazole-3-thiol	188	OCHEM
O=C(O)c1ccccc1OCc1ccc(Cl)cc1	2-((4-Chlorobenzyl)oxy)benzoic acid	86	OCHEM
O=c1oc2ccccc2o1	1,3-Benzodioxol-2-one	117	OCHEM
O=C1CC(c2ccccc2)N1 (configuration not stated)	4-phenylazetidin-2-one	108	OCHEM
Cc1nn(-c2ccccc2)c(N)c1-c1ccccc1	3-Methyl-1,4-diphenyl-1H-pyrazol-5-amine	83	OCHEM
CCN(CC)S(=O)(=O)c1cccc(C(=O)O)c1	3-(Diethylsulfamoyl)benzoic acid	165	OCHEM
COc1ccc(C(NC(=O)CCl)c2ccc(OC)cc2)cc1	N-[bis(4-methoxyphenyl)methyl]-2-chloroacetamide	119	OCHEM
CCOC(=O)c1c(N=C=S)sc(C)c1C	ethyl 2-isothiocyanato-4,5-dimethylthiophene-3-carboxylate	68	OCHEM
Clc1cncc(OCc2ccccc2)n1	2-(benzyloxy)-6-chloropyrazine	48	OCHEM
Cc1cc(C(=O)O)c(N)s1	2-Amino-5-methylthiophene-3-carboxylic acid	127	OCHEM
Nc1ccnn1CC1CCCCC1	1-(cyclohexylmethyl)-1H-pyrazol-5-amine	60	OCHEM
Nc1ccccc1C(=O)NCCc1ccccc1	2-amino-n-phenethyl-benzamide	111	OCHEM
O=C(O)C1CC2CCCC(C1)C2=O (configuration not stated)	9-Oxo-bicyclo[3.3.1]nonane-3-carboxylic acid	130	OCHEM

6 of these entries, quoted again:

| structure (SMILES) | name | melting point (°C) | via |
|---|---|---|---|
| S=c1[nH]ncn1-c1cccc(Cl)c1 | 4-(3-chlorophenyl)-4H-1,2,4-triazole-3-thiol | 188 | OCHEM |
| O=C1Nc2cccnc2N(C(=O)CCl)c2ccccc21 | n/a | 192 | eChemPortal |
| Brc1ccc(Oc2c(Br)c(Br)c(Br)c(Br)c2Br)cc1 | BDE-166 | 184 | OCHEM |
| O=C(O)COc1ccc(C(=O)c2ccccc2)cc1 | Acetic acid, (4-benzoylphenoxy)- | 154 | OCHEM |
| CNS(=O)(=O)c1ccc(C(C)=O)cc1 | n/a | 110 | OCHEM |
| CCN(CC)S(=O)(=O)c1ccc(Cl)c([N+](=O)[O-])c1 | 4-chloro-N,N-diethyl-3-nitrobenzenesulfonamide | 89.5 | OCHEM |

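These are experimental values that the OPERA curators gathered from public databases to train and test their QSAR models. One number stands for a compound and property, with no spread given. Method, purity and exact conditions of the single measurements are not given. Where a salt, mixture or single isomer is drawn, the source does not say that exactly this form was tested. Some entries may be limits or estimates that an upstream database listed as plain numbers.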

Data: OPERA 2.9 data sets, kmansouri/OPERA on GitHub.